{"source": "paper PMC8699473", "about": "“An Easily Expandable Multi-Drug LC-MS Assay for the Simultaneous Quantification of 57 Oral Antitumor Drugs in Human Plasma” (Cancers, 2021)", "assay": "Short-term stability in spiked pooled human plasma (bench-top, 4 °C, 56 °C)", "settings": "validation standard 2xLLOV"}
{"smiles": "COc1cc2nccc(Oc3ccc(NC(=O)C4(C(=O)Nc5ccc(F)cc5)CC4)cc3)c2cc1OC", "note": "[Cabozantinib]", "values": [{"measurement": "Short-time stability (24h, RT, without daylight) Accuracy [%]", "value": 101.0, "unit": "%"}]}
